Reference: PubChem BioAssay AID1665 (Sanford-Burnham Center for Chemical Genomics, 2009)
The entries are a selection whose mix differs from that of the whole data set. Calls of active or inactive are those of the source.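 How the source made its calls: active means nuclear translocation activity above 50% at 5 µM, with a well cell count of 50 or more; inconclusive means wells under 50 cells across six images, flagged as toxic; inactive means the rest.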

Test: beta-catenin nuclear localization change in HeLa – imaging, HeLa cells, immunofluorescence, high-content, primary screen (AID 1665);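 further: plate controls were DMSO negative control for no effect and GSK-3 inhibitor IX positive control for full effect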
Details: at 5 µM, hits give high values
In short: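 Assay system: human HeLa cells, native beta-catenin; doses: 5 µM primary, 0.02–20 µM confirmation; incubation: compound treatment 24 h, 37°C, 5% CO2; technique: fluorescence imaging of beta-catenin antibody stain plus DAPI; measure: % activation, nuclear-to-cytoplasmic median beta-catenin signal ratio per cell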

Structure (SMILES)	nuclear translocation activity
COc1ccccc1OP(C)(=O)Nc1ccc(C)cc1 (stereo unspecified)	inactive: -3.9%
